# Measurements taken from US10086000B2, “Tricyclic compounds as inhibitors of mutant IDH enzymes” (Merck Sharp & Dohme Corp., priority 2014, dated 2018).
# The chains behind the UniProt entries cited, without tags or fusion partners.
# UniProt O75874, whole entry R132H: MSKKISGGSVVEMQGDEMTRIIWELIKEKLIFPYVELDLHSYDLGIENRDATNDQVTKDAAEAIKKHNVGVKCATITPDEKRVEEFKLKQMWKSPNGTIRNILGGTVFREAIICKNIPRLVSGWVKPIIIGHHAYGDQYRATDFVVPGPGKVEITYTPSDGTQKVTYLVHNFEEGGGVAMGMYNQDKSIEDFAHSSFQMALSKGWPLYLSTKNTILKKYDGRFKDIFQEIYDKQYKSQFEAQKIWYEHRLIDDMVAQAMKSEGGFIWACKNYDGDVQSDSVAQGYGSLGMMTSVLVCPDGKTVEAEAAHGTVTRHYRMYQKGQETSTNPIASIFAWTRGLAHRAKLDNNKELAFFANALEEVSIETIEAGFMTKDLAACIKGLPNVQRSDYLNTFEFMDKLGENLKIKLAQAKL
# Biological target: R132H mutant IDH1 enzyme (Homo sapiens (Human), UniProt O75874, R132H)
# Assay: R132H IDH1 Enzymatic Assay
# Type: biochemical
# Details: R132H mutant IDH1 enzyme 1.5 nM final; luminescence (Kinase-GLO) readout
structure (smiles),measurement,value
"COC1CC2CCC1CC2C(=O)N1Cc2cccnc2Nc2ccc(N3CCOCC3)cc21 (stereo not shown) [Example 60, 6-[(5-methoxybicyclo[2.2.2]oct-2-yl)carbonyl]-8-morpholin-4-yl-6,11-dihydro-5H-pyrido[2,3-b][1,5]benzodiazepine]",IC50,1460 nM
"O=C([C@H]1C[C@@H]2[C@H](C1)C2(F)F)N1Cc2cccnc2Nc2ccc(N3CCOCC3)cc21 [Example 19, 6-{[(1R,3r,5S)-6,6-difluorobicyclo[3.1.0]hex-3-yl]carbonyl}-8-morpholin-4-yl-6,11-dihydro-5H-pyrido[2,3-b][1,5]benzodiazepine]",IC50,148 nM
"O=C([C@H]1CC[C@@H]2OCCC[C@H]2C1)N1Cc2cccnc2Nc2ccc(N3CCOCC3)cc21 [Example 47, 8-morpholin-4-yl-6-[(4aS,6S,8aS)-octahydro-2H-chromen-6-ylcarbonyl]-6,11-dihydro-5H-pyrido[2,3-b][1,5]benzodiazepine]",IC50,11000 nM
"O=C(C1CCc2ccccc2CC1)N1Cc2cccnc2Nc2cccc(O)c21 [Example 66, 6-(6,7,8,9-tetrahydro-5H-benzo[7]annulen-7-ylcarbonyl)-6,11-dihydro-5H-pyrido[2,3-b][1,5]benzodiazepin-7-ol]",IC50,12 nM
"O=C(c1ccc2c(c1)N(C(=O)C1CCc3ccccc3CC1)Cc1cccnc1N2)N1Cc2ccccc2C1 [Example 65, 8-(1,3-dihydro-2H-isoindol-2-ylcarbonyl)-6-(6,7,8,9-tetrahydro-5H-benzo[7]annulen-7-ylcarbonyl)-6,11-dihydro-5H-pyrido[2,3-b][1,5]benzodiazepine]",IC50,3 nM
"O=C(C1CCc2ccccc2CC1)N1Cc2cccnc2Nc2ccc(-c3cnoc3)cc21 [Example 103, 8-isoxazol-4-yl-6-(6,7,8,9-tetrahydro-5H-benzo[7]annulen-7-ylcarbonyl)-6,11-dihydro-5H-pyrido[2,3-b][1,5]benzodiazepine]",IC50,3 nM
"CC1NC(=O)OC1c1ccc2c(c1)N(C(=O)C1CCc3ccccc3CC1)Cc1cccnc1N2 (stereo not shown) [Example 125, 4-Methyl-5-[6-(6,7,8,9-tetrahydro-5H-benzo[7]annulen-7-ylcarbonyl)-6,11-dihydro-5H-pyrido[2,3-b][1,5]benzodiazepin-8-yl]-1,3-oxazolidin-2-one]",IC50,3 nM
"CC1(C(=O)N2Cc3cccnc3Nc3ccccc32)CCc2ccccc2C1 (stereo not shown) [Example 23, 6-[(2-methyl-1,2,3,4-tetrahydronaphthalen-2-yl)carbonyl]-6,11-dihydro-5H-pyrido[2,3-b][1,5]benzodiazepine]",IC50,611 nM
"CCCOc1ccc2c(c1)OCC(C(=O)N1Cc3cccnc3Nc3ccc(N4CCOCC4)cc31)C2 (stereo not shown) [Example 44, 8-morpholin-4-yl-6-[(7-propoxy-3,4-dihydro-2H-chromen-3-yl)carbonyl]-6,11-dihydro-5H-pyrido[2,3-b][1,5]benzodiazepine]",IC50,626 nM
"O=C(C1C[C@H]2COC[C@@H](C1)N2CC(F)(F)F)N1Cc2cccnc2Nc2ccc(N3C[C@H]4CCC3CO4)cc21 (single isomer, unassigned) [Example 130]",IC50,5 nM
"O=C(C1CCc2ccccc2C1)N1Cc2cccnc2Nc2ccccc21 (stereo not shown) [Example 21, 6-(1,2,3,4-tetrahydronaphthalen-2-ylcarbonyl)-6,11-dihydro-5H-pyrido[2,3-b][1,5]benzodiazepine]",IC50,440 nM
"O=C([C@@H]1CC[C@H]2OCCC[C@H]2C1)N1Cc2cccnc2Nc2ccc(N3CCOCC3)cc21 (single isomer, unassigned) [Example 46]",IC50,1580 nM
"O=C([C@@H]1[C@@H]2C[C@H]1CN(CC(F)(F)F)C2)N1Cc2cccnc2Nc2ccc(N3CCOCC3)cc21 [Example 131, Cis[8-(morpholin-4-yl)-5,11-dihydro-6H-pyrido[2,3-b][1,5]benzodiazepin-6-yl][3-(2,2,2-trifluoroethyl)-3-azabicyclo[3.1.1]hept-6-yl]methanone]",IC50,114 nM
"O=C([C@H]1CC[C@@H]2CCC[C@@H]21)N1Cc2cccnc2Nc2ccc(N3CCOCC3)cc21 [Example 74, 8-morpholin-4-yl-6-[(1S,3aS,6aS)-octahydropentalen-1-ylcarbonyl]-6,11-dihydro-5H-pyrido[2,3-b][1,5]benzodiazepine]",IC50,79 nM
"O=C([C@@H]1CC[C@H]2OCCC[C@@H]2C1)N1Cc2cccnc2Nc2ccc(N3CCOCC3)cc21 [Example 48, 8-morpholin-4-yl-6-[(4aR,6R,8aR)-octahydro-2H-chromen-6-ylcarbonyl]-6,11-dihydro-5H-pyrido[2,3-b][1,5]benzodiazepine]",IC50,1870 nM
"O=C(C1CC2CCC(C1)C2(F)F)N1Cc2cccnc2Nc2ccccc21 (stereo not shown) [Example 30, 6-[(8,8-difluorobicyclo[3.2.1]oct-3-yl)carbonyl]-6,11-dihydro-5H-pyrido[2,3-b][1,5]benzodiazepine]",IC50,1770 nM
"O=C([C@H]1CC[C@H]2CCC[C@H]21)N1Cc2cccnc2Nc2ccc(N3CCOCC3)cc21 (single isomer, unassigned) [Example 71]",IC50,85 nM
"O=C(C1CC[C@@H]2CCC[C@H]12)N1Cc2cccnc2Nc2ccccc21 (stereo partly drawn) [Example 14, 6-[(3aS,6aS)-octahydropentalen-1-ylcarbonyl]-6,11-dihydro-5H-pyrido[2,3-b][1,5]benzodiazepine]",IC50,630 nM
"CCOC1CC2(C1)CC(C(=O)N1Cc3cccnc3Nc3ccc(N4CCOCC4)cc31)C2 (stereo not shown) [Example 87, 6-[(6-ethoxyspiro[3.3]hept-2-yl)carbonyl]-8-morpholin-4-yl-6,11-dihydro-5H-pyrido[2,3-b][1,5]benzodiazepine]",IC50,1500 nM
"COc1ccc(-c2ccc3c(c2)N(C(=O)C2CCc4ccccc4CC2)Cc2cccnc2N3)c(C)n1 [Example 108, 8-(6-methoxy-2-methylpyridin-3-yl)-6-(6,7,8,9-tetrahydro-5H-benzo[7]annulen-7-ylcarbonyl)-6,11-dihydro-5H-pyrido[2,3-b][1,5]benzodiazepine]",IC50,6 nM
"O=C(C1CCCCC12CC2)N1Cc2cccnc2Nc2ccc(N3CCOCC3)cc21 (stereo not shown) [Example 69, 8-morpholin-4-yl-6-(spiro[2.5]oct-4-ylcarbonyl)-6,11-dihydro-5H-pyrido[2,3-b][1,5]benzodiazepine]",IC50,1900 nM
"CC1CN(C(=O)C23CCC(C(=O)N4Cc5cccnc5Nc5ccccc54)(CC2)CC3)C1 [Example 89, 6-({4-[(3-Methylazetidin-1-yl)carbonyl]bicyclo[2.2.2]oct-1-yl}carbonyl)-6,11-dihydro-5H-pyrido[2,3-b][1,5]benzodiazepine]",IC50,4200 nM
"C[C@H]1C[C@H]2CC(C(=O)N3Cc4cccnc4Nc4ccc(N5CCOCC5)cc43)CC[C@H]2O1 (stereo in doubt) [Example 54, 6-{[(2S,3aR,5S,7aR)-2-methyloctahydro-1-benzofuran-5-yl]carbonyl}-8-morpholin-4-yl-6,11-dihydro-5H-pyrido[2,3-b][1,5]benzodiazepine]",IC50,6140 nM
"CC(C)(C#N)c1ccc2c(c1)N(C(=O)C1CCc3ccccc3CC1)Cc1cccnc1N2 [Example 3, 2-Methyl-2-[6-(6,7,8,9-tetrahydro-5H-benzo[7]annulen-7-ylcarbonyl)-6,11-dihydro-5H-pyrido[2,3-b][1,5]benzodiazepin-8-yl]propanenitrile]",IC50,3 nM
"Cn1nccc1-c1ccc2c(c1)N(C(=O)C1CCc3ccccc3CC1)Cc1cccnc1N2 [Example 101, 8-(1-methyl-1H-pyrazol-5-yl)-6-(6,7,8,9-tetrahydro-5H-benzo[7]annulen-7-ylcarbonyl)-6,11-dihydro-5H-pyrido[2,3-b][1,5]benzodiazepine]",IC50,5 nM
"O=C([C@H]1COc2ccccc2O1)N1Cc2cccnc2Nc2ccc(N3CCC(F)CC3)cc21 [Example 75, 6-[(2R)-2,3-dihydro-1,4-benzodioxin-2-ylcarbonyl]-8-(4-fluoropiperidin-1-yl)-6,11-dihydro-5H-pyrido[2,3-b][1,5]benzodiazepine]",IC50,69 nM
"O=C(C1COC2CCCCC2O1)N1Cc2cccnc2Nc2ccc(N3CC4CCC(C3)O4)cc21 (stereo not shown) [Example 82, 6-(octahydro-1,4-benzodioxin-2-ylcarbonyl)-8-(8-oxa-3-azabicyclo[3.2.1]oct-3-yl)-6,11-dihydro-5H-pyrido[2,3-b][1,5]benzodiazepine]",IC50,20 nM
"O=C([C@@H]1COc2ccccc2O1)N1Cc2cccnc2Nc2ccc(N3CCOCC3)cc21 [Example 43, 6-[(2S)-2,3-dihydro-1,4-benzodioxin-2-ylcarbonyl]-8-morpholin-4-yl-6,11-dihydro-5H-pyrido[2,3-b][1,5]benzodiazepine]",IC50,626 nM
"O=C(O)C1CC2(C1)CC(C(=O)N1Cc3cccnc3Nc3ccccc31)C2 (stereo not shown) [Example 9, 6-(5,11-dihydro-6H-pyrido[2,3-b][1,5]benzodiazepin-6-ylcarbonyl)spiro[3.3]heptane-2-carboxylic acid]",IC50,39400 nM
"O=C(C1CCc2ccccc2CC1)N1Cc2cccnc2Nc2ccc(N3CCOCC3)nc21 [Example 118, 2-Morpholin-4-yl-11-(6,7,8,9-tetrahydro-5H-benzo[7]annulen-7-ylcarbonyl)-10,11-dihydro-5H-dipyrido[2,3-b:2′,3′-e][1,4]diazepine]",IC50,9 nM
"O=C(C1CC[C@@H]2OCC[C@@H]2C1)N1Cc2cccnc2Nc2ccc(N3CCOCC3)cc21 (stereo in doubt) [Example 34, 8-morpholin-4-yl-6-[(3aS,5R,7aS)-octahydro-1-benzofuran-5-ylcarbonyl]-6,11-dihydro-5H-pyrido[2,3-b][1,5]benzodiazepine]",IC50,1520 nM
"Cn1cc(-c2ccc3c(c2)N(C(=O)C2CCc4ccccc4CC2)Cc2cccnc2N3)cn1 [Example 99, 8-(1-Methyl-1H-pyrazol-4-yl)-6-(6,7,8,9-tetrahydro-5H-benzo[7]annulen-7-ylcarbonyl)-6,11-dihydro-5H-pyrido[2,3-b][1,5]benzodiazepine]",IC50,5 nM
"O=C(C1CC12CCCC2)N1Cc2cccnc2Nc2ccccc21 (stereo not shown) [Example 5, 6-(spiro[2.4]hept-1-ylcarbonyl)-6,11-dihydro-5H-pyrido[2,3-b][1,5]benzodiazepine]",IC50,8480 nM
"O=C1Nc2ccccc2CC1C(=O)N1Cc2cccnc2Nc2ccc(N3CCOCC3)cc21 (stereo not shown) [Example 98, 3-[(8-morpholin-4-yl-5,11-dihydro-6H-pyrido[2,3-b][1,5]benzodiazepin-6-yl)carbonyl]-3,4-dihydroquinolin-2(1H)-one]",IC50,3610 nM
